## Ab-14 light chain CDR variants: yeast mating affinities

Data: MIT Lincoln Laboratory AlphaSeq set, Li et al. 2023, doi:10.1038/s41467-023-39022-2, as distributed in FLAb.

Target: peptide PDVDLGDISGINAS, taken from heptad repeat 2 (HR2) of SARS-CoV-2 spike.

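Phage display of a naive human antibody library on the peptide gave the parent. These sequences belong to a second round, designed from the earlier measurements on random variants of the parent. Several design methods are mixed in this list. Affinity was read by AlphaSeq, a pooled yeast mating assay with surface-displayed partners. Mating (16 h, 30 °C) was followed by selection of diploids and sequencing of their barcodes. The ratio of observed to expected reads was calibrated, replicate by replicate, on BCL2-family standards whose Kd was known from biolayer interferometry. The assay was run in six technical replicates.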

Parent scFv Ab-14: VH joined to VL by the linker GGGGSGGGGSGGGGS. Changes lie in the light chain CDRs alone.
VH: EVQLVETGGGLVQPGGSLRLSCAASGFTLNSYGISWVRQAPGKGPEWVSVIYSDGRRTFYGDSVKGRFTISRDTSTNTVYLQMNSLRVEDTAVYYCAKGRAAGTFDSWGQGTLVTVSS
VL: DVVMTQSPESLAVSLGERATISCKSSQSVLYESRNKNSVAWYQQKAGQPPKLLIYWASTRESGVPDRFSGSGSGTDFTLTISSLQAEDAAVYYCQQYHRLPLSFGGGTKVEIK

Each variant is given by its three light chain CDRs, as the data file delimits them; those of the parent are KSSQSVLYESRNKNSVA, WASTRES, QQYHRLPLS.
Variants here have more than six changes.
Values are apparent Kd, the geometric mean of the replicates that gave a signal; lower means stronger binding.

With KLVGVDDNDNKPMSAIA | DVNTLDN | QQYFRLPLD the result was 17 nM (6 of 6 replicates).
With TLTGAMQTQMHNKNSVA | DLTTRNN | QQYHRLPLS the result was 1.6 nM (6 of 6 replicates).
With TISGVMQSMSHSKSNVA | EVSTRLD | QQYVRLPLA the result was 4.3 nM (6 of 6 replicates).
With KLSQMMPYESRNANSVA | NASTREE | QQYHRLPLS the result was 490 pM (6 of 6 replicates).
With QLSSITGHMSMSKNNVA | EMETREN | QQYDRLPLS the result was 1.1 nM (6 of 6 replicates).
With KMGMAFQQDLMDEYSVA | DHMLRVT | QQYGRLPLS the result was 220 nM (3 of 6 replicates).
With KLVQFMNRGTHHTSNIA | DAALRED | QQYARLPLA the result was 3.0 nM (6 of 6 replicates).
With KLQQSELYESRNTNSVA | GASTRCE | QQYHRLPLS the result was 9.3 nM (6 of 6 replicates).
With KVSFFNEQVTKKGSNVA | DNETREA | QQYFRLPLS the result was 1.1 nM (6 of 6 replicates).
With TITMFMDNAYHNRNNVA | DTSTLGS | QSYDRLPLS the result was 34 nM (6 of 6 replicates).
With QLDWYNSTATAAKNSVA | GVAQRMN | QQYMRLPLM the result was 1.1 nM (6 of 6 replicates).
With HLSANMWMESSQWDAVA | QGDIANN | QQYSRLPLS the result was 2.4 nM (6 of 6 replicates).
With HIGLATMSEETVRNSVA | NNSTRED | QQYDRLPLS the result was 7.5 nM (6 of 6 replicates).
With MISQVMNTLTREGNNVA | DLAERER | QQYFRLPLS the result was 5.2 nM (6 of 6 replicates).
With TLYGLSNSSSINKNSVA | EMTTRED | QQYDRLPLV the result was 78 nM (2 of 6 replicates).
With QIDHPELSFQQNQYSIA | NASQSLD | QQYAQLPLM the result was 4.5 nM (6 of 6 replicates).
With QIYQAMHTLSQMKDNVA | DVNERGT | QQYHRLPLS the result was 1.4 nM (6 of 6 replicates).
With SIRQVTDDYQATHSAIA | DASQIEP | QQYSILPLS the result was 1.0 nM (6 of 6 replicates).
With MISQSFLIGSRIKNSVA | QTSTRES | QQYDRLPLS the result was 8.2 nM (6 of 6 replicates).
With GFSDSITEQIADANSIA | DRDARDV | QQYSRLPLI the result was 17 nM (6 of 6 replicates).
With KLQQSCLYESRMPNSVA | NASTRYS | QQYHRLPLS the result was 1.2 nM (6 of 6 replicates).
With MFSYNLHDMGRNKNSVA | EMNKVTT | QDYHRLPLA the result was 13 nM (6 of 6 replicates).
With KLQQMYEYESRNPNSVA | SASTREL | QQYHRLPLS the result was 1.4 nM (6 of 6 replicates).
With HLYHPWQSGQDSMQNVA | NDSTLMT | QHYNRLPLS the result was 3.3 µM (1 of 6 replicates).
With KISQVFMTTGKLKNSVA | NAYTRVQ | QQYHRLPLS the result was 2.6 nM (6 of 6 replicates).
With KLSQEVLMGDRNKNSVA | KASTRLS | QQYHRLPLS the result was 3.3 nM (6 of 6 replicates).
With KLMEQALYESRNKNSVA | QASTREM | QQYHRLPLS the result was 3.4 nM (6 of 6 replicates).
With KVFPSELGLSRNKNSVA | DASTRES | QQYHRLPLS the result was 540 pM (6 of 6 replicates).
With HITYGMMVHGRHAKSIA | QAEERAK | QQYDRLPLI the result was 22 nM (6 of 6 replicates).
With MLYGLSVSMSKNTNNVA | EMTTRED | QQYDRLPLI the result was 15 nM (3 of 6 replicates).
With SLYGEYALPDQHTDSIA | DANLMMH | QQYHRLPLA the result was 3.0 nM (6 of 6 replicates).
With LIKGMVEGQYYWQNNIA | NSEERDR | QQYNHLPLS the result was 15 nM (6 of 6 replicates).
With QLSGPMLLESKNKNSVA | EFSTRGS | QQYHRLPLS the result was 27 nM (6 of 6 replicates).
With KLTMSYRYESENKNSIA | ELVTRMS | QQYHRLPLS the result was 29 nM (6 of 6 replicates).
With QMRLLLENSGHRMNSIA | DETMKPD | QQYVRLPLH the result was 69 nM (3 of 6 replicates).
With KLSESVRMESFNKNSVA | ENSTRES | QDYHRLPLS the result was 47 nM (6 of 6 replicates).
With KISMQYRYESQEKNSIA | EMSTREE | QSYHRLPLS the result was 34 nM (6 of 6 replicates).
With KLMQEDEYQSRNKNSVA | HASLRES | QQYHRLPLS the result was 210 pM (6 of 6 replicates).
With SISMSMAFLSRNKNSVA | ENSTRES | QQYHRLPLT the result was 15 nM (6 of 6 replicates).
With KMSQEVPLESRNVNSVA | MASTRMM | QQYHRLPLS the result was 1.6 nM (6 of 6 replicates).
With KLDQDDLYESRNCNNVA | QASTREQ | QQYHRLPLS the result was 860 pM (6 of 6 replicates).

The closing 6 entries, repeated:

{"CDR-L1": "KLSESVRMESFNKNSVA", "CDR-L2": "ENSTRES", "CDR-L3": "QDYHRLPLS", "Kd": "47 nM", "detected": "6/6"}
{"CDR-L1": "KISMQYRYESQEKNSIA", "CDR-L2": "EMSTREE", "CDR-L3": "QSYHRLPLS", "Kd": "34 nM", "detected": "6/6"}
{"CDR-L1": "KLMQEDEYQSRNKNSVA", "CDR-L2": "HASLRES", "CDR-L3": "QQYHRLPLS", "Kd": "210 pM", "detected": "6/6"}
{"CDR-L1": "SISMSMAFLSRNKNSVA", "CDR-L2": "ENSTRES", "CDR-L3": "QQYHRLPLT", "Kd": "15 nM", "detected": "6/6"}
{"CDR-L1": "KMSQEVPLESRNVNSVA", "CDR-L2": "MASTRMM", "CDR-L3": "QQYHRLPLS", "Kd": "1.6 nM", "detected": "6/6"}
{"CDR-L1": "KLDQDDLYESRNCNNVA", "CDR-L2": "QASTREQ", "CDR-L3": "QQYHRLPLS", "Kd": "860 pM", "detected": "6/6"}

The parent sequence was in this pool as ten entries: three were never detected, three once, and four in most replicates, with averages from 2.2 nM to 240 nM.
Values of this round are not directly comparable with the first-round values of the same sequences.
Background: pairings of all light chain designs with three empty control strains gave a value in 4% of cases (median 430 nM, 5th percentile 38 nM). Values in that range, when seen in few replicates, are hard to tell from nonspecific mating.
The authors' rule: three or more of the six replicates give a measured affinity, fewer mean a poor binder.